# Measured values published in patent US10112937B2, “P2X7 modulators and methods of use” (Janssen Pharmaceutica NV, priority 2013, dated 2018).
# Chains of the proteins cited; added tags and fusions are not shown. Lines headed by an entry give the natural chain unless they say otherwise; changes in a name come on top.
# UniProt Q64663: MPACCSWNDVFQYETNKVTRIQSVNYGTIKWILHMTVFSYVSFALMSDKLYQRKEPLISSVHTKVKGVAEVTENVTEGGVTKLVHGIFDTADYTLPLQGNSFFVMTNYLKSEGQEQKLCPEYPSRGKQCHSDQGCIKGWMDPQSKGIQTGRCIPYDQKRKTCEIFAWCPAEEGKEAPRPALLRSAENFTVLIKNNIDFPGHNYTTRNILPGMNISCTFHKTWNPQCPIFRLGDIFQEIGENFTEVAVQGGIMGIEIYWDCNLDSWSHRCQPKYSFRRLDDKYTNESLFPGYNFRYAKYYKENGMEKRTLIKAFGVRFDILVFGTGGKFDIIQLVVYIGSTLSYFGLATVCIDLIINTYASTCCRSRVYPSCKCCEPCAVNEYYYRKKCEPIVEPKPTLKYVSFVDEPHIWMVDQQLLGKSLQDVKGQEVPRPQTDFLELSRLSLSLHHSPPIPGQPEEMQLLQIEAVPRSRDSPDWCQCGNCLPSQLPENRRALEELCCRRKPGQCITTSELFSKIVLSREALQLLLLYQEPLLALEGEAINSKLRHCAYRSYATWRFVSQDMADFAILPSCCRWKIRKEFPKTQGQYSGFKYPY
# UniProt Q99572: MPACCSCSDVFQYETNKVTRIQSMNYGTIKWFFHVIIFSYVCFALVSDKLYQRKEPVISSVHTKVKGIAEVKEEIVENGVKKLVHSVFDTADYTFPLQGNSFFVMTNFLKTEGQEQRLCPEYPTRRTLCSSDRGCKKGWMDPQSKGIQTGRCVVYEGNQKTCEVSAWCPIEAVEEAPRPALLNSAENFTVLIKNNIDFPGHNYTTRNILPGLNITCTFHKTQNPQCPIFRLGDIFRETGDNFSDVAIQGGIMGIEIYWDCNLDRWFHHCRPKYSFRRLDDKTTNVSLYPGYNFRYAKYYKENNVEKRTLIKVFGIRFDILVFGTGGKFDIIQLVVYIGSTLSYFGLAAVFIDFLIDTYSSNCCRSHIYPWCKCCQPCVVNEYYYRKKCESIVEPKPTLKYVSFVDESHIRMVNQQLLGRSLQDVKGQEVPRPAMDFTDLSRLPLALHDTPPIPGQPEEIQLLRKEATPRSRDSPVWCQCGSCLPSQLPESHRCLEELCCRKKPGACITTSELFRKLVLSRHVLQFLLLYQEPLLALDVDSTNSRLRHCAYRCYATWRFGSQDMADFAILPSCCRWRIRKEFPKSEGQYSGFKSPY
# What was measured:
# [1] = target: rat P2X7 (Rattus norvegicus (Rat), UniProt Q64663); test: Ca2+ flux (FLIPR) in 1321N1 cells expressing recombinant rat P2X7; assay type: cell-based; conditions: recombinant rat P2X7, 250 μM BzATP;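 further: Calcium-4 dye fluorescence change read 180 s after agonist addition, with cells preincubated 30 min with compound and dye in 96-well plates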
# [2] = target: T1, human P2X7 (Homo sapiens (Human), UniProt Q99572); test: Radioligand binding ([3H]A-804598), human P2X7-1321N1 cell membranes; conditions: human P2X7-1321N1 membranes, tritiated A-804598
# [3] = target: T1, human P2X7; test: Ca2+ flux (FLIPR) in 1321N1 cells expressing recombinant human P2X7; assay type: cell-based; conditions: 1321N1 cells, recombinant human P2X7, 250 μM BzATP;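 further: cells loaded with Calcium-4 dye, preincubated with test compound for 30 min, fluorescence change read 180 s after agonist addition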
# [4] = target: T1, human P2X7; test: P2X7 antagonism in human PBMCs (IL-1β release after LPS + Bz-ATP, ELISA); assay type: cell-based; conditions: test compound 10 μM
# Protocol: The in vitro affinity of the compounds of the invention for the rat and human P2X7 receptor was determined using a human peripheral blood mononuclear cells (PBMCs), a human whole blood assay, a Ca^2+ flux and radioligand binding assay in recombinant human P2X7 cells and recombinant rat P2X7 cells. In Tables 2 and 3, when the data cell has been left blank, it is intended to mean that the compound was not tested in that assay. The data represented in Tables 2 and 3 may represent a value from a single determination or when the experiment was run more than once, the data represent averages from between 2-12 runs.
# Human blood was collected using a blood donor program. […] Cells were incubated for an additional 1.5 hours. […] Data are analyzed and graphed on Graphpad Prism 5. […] The IC50 for each compound is then uploaded into 3DX.
IC50 [1] [nM],Ki [2] [nM],IC50 [3] [nM],PBMC 10 μM (% control) [4] [% control],Compound
211,13.8,10.6,,"Cc1cccc(-n2nnc3c2CCN(C(=O)c2cccc(Cl)c2Cl)[C@H]3C)n1 (single isomer, unassigned) [Example 390, (S*)-(2,3-dichlorophenyl)(4-methyl-1-(6-methylpyridin-2-yl)-6,7-dihydro-1H-[1,2,3]triazolo[4,5-c]pyridin-5(4H)-yl)methanone]"
,,,14.7,"Cc1ccnc(-n2nnc3c2CCN(C(=O)c2cccc(Cl)c2Cl)[C@H]3C)c1 (single isomer, unassigned) [Example 395, (S*)-(2,3-dichlorophenyl)(4-methyl-1-(4-methylpyridin-2-yl)-6,7-dihydro-1H-[1,2,3]triazolo[4,5-c]pyridin-5(4H)-yl)methanone]"
